Literature values in patent publication US9457016B2, “Methods for treating polycystic kidney disease” (New York University, priority 2013, dated 2016).

Legend:
[1] = system: P493 human lymphoma B cells; settings: in vivo; cited from earlier work
[2] = system: P493 human lymphoma B cells; settings: cited from earlier work

**Q.** Which “growth of P493 cells in a mouse xenograft model” value [1] does the source give for `Nc1nnc(CCSCCc2nnc(NC(=O)Cc3ccccc3)s2)s1` [compound 6, N-(5-{2-[2-(5-amino-[1,3,4]thiadiazol-2-yl)-ethylsulfanyl]-ethyl}-[1,3,4]thiadiazol-2-yl)-2-phenyl-acetamide] here?
**A.** Its value is “attenuated the growth”.

**Q.** And the “growth of P493 human lymphoma B cells in vitro” value [2]?
**A.** The value was “attenuated the growth”.
